This test deals with Cannabinoid receptor 2 (Homo sapiens, UniProt P34972). The experiment in a line: Agonist activity at recombinant human CB2 receptor expressed in HEK293 cells assessed as increase in beta arrestin recruitment measured after 2 to 3 hrs by PathHunter assay relative to CP55940. The test is classed as functional, cell-based. For orientation: Arrestin recruitment assays detect the binding of arrestin to an activated receptor.

Protein sequences, listed by entry. Tags and fused reporters are not part of them.
UniProt P34972, whole entry: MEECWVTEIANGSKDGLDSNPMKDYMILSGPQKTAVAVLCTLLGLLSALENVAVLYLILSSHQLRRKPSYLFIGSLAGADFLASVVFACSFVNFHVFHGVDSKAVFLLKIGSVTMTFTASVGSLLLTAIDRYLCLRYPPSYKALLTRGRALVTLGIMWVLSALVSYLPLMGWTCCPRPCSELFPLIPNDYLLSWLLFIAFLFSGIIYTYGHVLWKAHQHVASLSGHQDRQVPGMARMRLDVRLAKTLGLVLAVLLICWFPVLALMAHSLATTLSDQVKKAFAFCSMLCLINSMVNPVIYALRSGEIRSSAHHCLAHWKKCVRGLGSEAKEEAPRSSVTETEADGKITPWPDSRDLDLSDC

SMILES strings stand for the structures.

On to `O=C(NC1(C(F)(F)F)CC1)c1nn(-c2c[n+]([O-])ccn2)c2c1C[C@@H]1C[C@H]21`, for which the Emax (in general, the greatest response seen or fitted, relative to the assay's reference) came out at 108%.
